Protein sequences, listed by entry. Tags and fused reporters are not part of them.
Protein disulfide-isomerase (Homo sapiens), P07237, UniProt P07237, whole entry, looked up: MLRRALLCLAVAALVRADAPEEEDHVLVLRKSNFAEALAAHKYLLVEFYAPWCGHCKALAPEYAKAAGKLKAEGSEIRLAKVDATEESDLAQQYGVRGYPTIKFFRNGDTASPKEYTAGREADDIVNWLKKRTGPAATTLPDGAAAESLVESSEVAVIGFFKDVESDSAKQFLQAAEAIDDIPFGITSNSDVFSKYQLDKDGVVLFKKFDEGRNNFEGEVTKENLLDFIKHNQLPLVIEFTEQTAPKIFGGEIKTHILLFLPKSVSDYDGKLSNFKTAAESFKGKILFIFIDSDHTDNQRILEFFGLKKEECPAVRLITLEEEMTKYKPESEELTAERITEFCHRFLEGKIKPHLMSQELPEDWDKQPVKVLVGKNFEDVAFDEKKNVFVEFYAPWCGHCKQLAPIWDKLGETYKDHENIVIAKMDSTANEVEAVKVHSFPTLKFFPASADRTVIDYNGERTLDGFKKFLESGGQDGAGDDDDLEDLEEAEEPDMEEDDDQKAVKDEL

# Bioassay records (PubChem BioAssay)
# PDI turbidity = inhibitors of human PDI, primary screen, biochemical, turbidity, single point, plate reader; Protein disulfide-isomerase (Homo sapiens), P07237; PDI insulin aggregation turbidity, A650, 90 min; inhibition, % at 10 µM; 350,000 tested, 0.052% active;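 active = mean inhibition across replicates of 30% or more, whatever share of single replicates reach that level; inconclusive = mean inhibition below 30% while every single replicate reaches 30%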
# Cneo AK release = Cryptococcus neoformans cell lysis inducers, primary screen, AK release luminescence, single concentration; C. neoformans lysis, adenylate kinase release luminescence, 4 h; normalised: neutral wells 0, clomiphene wells 100; lysis activity, % at 15 µM; 360,000 tested, 0.2% active;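 active = mean lysis activity across replicates of at least 80%, whatever share of replicates individually reach that level; inactive = mean lysis activity below 80%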
#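 Test system: log-phase Cryptococcus neoformans yeast cells; Quantity: yeast cell density of 5 × 10^6 cells/mL; Buffer or medium: YPD; Doses: single compound concentration per well; Timing: 4 h at 37 °C static, read 1 h later; Measured by: AK luminescence; Read-out basis: lysis from increased AK signal; Control set: Clomiphene as positive control.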
# Yeast UUG start = modulators of start codon recognition fidelity in yeast; S. cerevisiae UUG-firefly luciferase reporter, luminescence/redox ratio; activity score, % at 18.7 µM; 0.13% of 350,000 active;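 active = replicate mean at a twofold rise or more, about +100% in these data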;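 also: firefly luciferase made from a UUG start codon reports start codon fidelity; reporter light over untreated wells divided by growth signal over untreated wells; some hits fall short of that in this replicate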
# ERp5 block = inhibitors of ERp5-driven insulin aggregation, primary screen, biochemical, turbidity, absorbance 650 nm, single point; Protein disulfide-isomerase A6 (Homo sapiens), Q15084; 90 min; inhibition, % at 9.99 µM; 350,000 tested, 0.05% active; AID 651711, 2012;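 active = mean replicate inhibition above about 25%, with every replicate also reaching it, limit read from the data, passing the limit was not always enough; inconclusive = only one of those two criteria met; inactive = neither criterion met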
# Starred values were filed as active, the others as inactive; ? = inconclusive; . = no result given. Shown are actives, neighbours in structure and some others; about 0.34% of the full set was active somewhere.
# Keys – A = PDI turbidity; B = Cneo AK release; C = Yeast UUG start; D = ERp5 block
C[C@H]1CN([C@@H](C)CO)C(=O)Cc2cc(NC(=O)c3ccncc3)ccc2O[C@H]1CN(C)S(=O)(=O)c1cn(C)cn1
  A = . | B = -3 | C = -13 | D = 74*
C[C@H](CO)N1C[C@H](C)[C@@H](CN(C)S(=O)(=O)c2cn(C)cn2)Oc2ccc(NC(=O)c3ccncc3)cc2CC1=O
  A = . | B = -2 | C = 0 | D = 65*
Cc1noc(C)c1NC(=O)N(C)C[C@H]1OCCCC[C@@H](C)Oc2ccc(NC(=O)NC(C)C)cc2C(=O)N([C@H](C)CO)C[C@H]1C
  A = . | B = 100* | C = 43 | D = 10
Cc1noc(C)c1NC(=O)N(C)C[C@H]1OCCCC[C@H](C)Oc2ccc(NC(=O)NC(C)C)cc2C(=O)N([C@@H](C)CO)C[C@@H]1C
  A = . | B = 90* | C = 22 | D = 2
Cc1noc(C)c1NC(=O)N(C)C[C@@H]1OCCCC[C@@H](C)Oc2ccc(NC(=O)NC(C)C)cc2C(=O)N([C@H](C)CO)C[C@H]1C
  A = . | B = . | C = . | D = -1
Cc1noc(C)c1S(=O)(=O)N(C)C[C@@H]1OCCCC[C@@H](C)Oc2ccc(NC(=O)CCCN(C)C)cc2C(=O)N([C@H](C)CO)C[C@@H]1C
  A = . | B = -1 | C = 7 | D = 2
Cc1noc(C)c1S(=O)(=O)N(C)C[C@@H]1OCCCC[C@@H](C)Oc2ccc(NC(=O)CCCCCC(=O)Nc3ccccc3N)cc2C(=O)N([C@H](C)CO)C[C@@H]1C
  A = . | B = 108* | C = -6 | D = -2
Cc1noc(C)c1NC(=O)Nc1ccc2c(c1)C(=O)N([C@H](C)CO)C[C@@H](C)[C@H](CN(C)S(C)(=O)=O)OCCCC[C@@H](C)O2
  A = . | B = 103* | C = 20 | D = -2
Cc1noc(C)c1NC(=O)N(C)C[C@@H]1OCCCC[C@H](C)Oc2ccc(NC(=O)NC(C)C)cc2C(=O)N([C@@H](C)CO)C[C@H]1C
  A = . | B = 1 | C = -1 | D = -1
C[C@H]1CN([C@@H](C)CO)C(=O)Cc2cc(NS(=O)(=O)c3ccc(F)cc3)ccc2O[C@@H]1CN(C)Cc1ccc(C(=O)O)cc1
  A = . | B = 0 | C = -11 | D = -4
CCc1cc(OCCCCNCc2ccccc2)ccc1Cl
  A = 54* | B = 2 | C = -4 | D = .
O=C(Cc1ccccn1)NCC[C@@H]1CC[C@@H](NC(=O)CN2CCOCC2)[C@H](CO)O1
  A = . | B = 1 | C = -2 | D = 0
C[C@@H]1CCCCO[C@@H](CN(C)S(=O)(=O)c2cccs2)[C@H](C)CN([C@@H](C)CO)C(=O)c2cc(NC(=O)CCC(F)(F)F)ccc2O1
  A = . | B = 98* | C = 39 | D = -6
CC(C)NC(=O)Nc1ccc2c(c1)C(=O)N([C@@H](C)CO)C[C@H](C)[C@@H](CN(C)S(=O)(=O)c1cccs1)OCCCC[C@H](C)O2
  A = . | B = 87* | C = 29 | D = -2
C[C@@H]1CN([C@@H](C)CO)C(=O)c2cc(NC(=O)CCC(F)(F)F)ccc2O[C@@H](C)CCCCO[C@@H]1CN(C)S(=O)(=O)c1cccs1
  A = . | B = 0 | C = 13 | D = -1
O=C(C[C@H]1C[C@H]2c3cc(NC(=O)CC4CC4)ccc3O[C@H]2[C@@H](CO)O1)NCc1cc(F)ccc1F
  A = . | B = -2 | C = -10 | D = -3
C[C@H]1CCCCO[C@@H](CN(C)C(=O)c2ccccc2)[C@@H](C)CN([C@@H](C)CO)C(=O)c2cc(NC(=O)c3ccncc3)ccc2O1
  A = . | B = 86* | C = 22 | D = ?
C[C@@H]1CCCCO[C@H](CN(C)C(=O)c2ccccc2)[C@@H](C)CN([C@@H](C)CO)C(=O)c2cc(NC(=O)c3ccccc3)ccc2O1
  A = . | B = 96* | C = . | D = 1
C[C@@H]1CN([C@H](C)CO)C(=O)c2cc(NC(=O)CCC(F)(F)F)ccc2O[C@@H](C)CCCCO[C@@H]1CN(C)C(=O)c1ccncc1
  A = . | B = 89* | C = 9 | D = .
CCCN1C[C@@H](C)[C@@H](OC)CN(C)C(=O)c2cc(NC(=O)CC(F)(F)F)ccc2OC[C@@H]1C
  A = . | B = . | C = . | D = -2
C[C@@H]1CCCCO[C@@H](CN(C)S(C)(=O)=O)[C@H](C)CN([C@@H](C)CO)C(=O)c2cc(NS(C)(=O)=O)ccc2O1
  A = . | B = 2 | C = -1 | D = .
CNC[C@@H]1Oc2ccc(NC(=O)NC(C)C)cc2C(=O)N([C@H](C)CO)C[C@H]1C
  A = . | B = -7 | C = -6 | D = 2
CCCN(C[C@H]1[C@H](c2ccccc2)[C@@H](CO)N1C(C)=O)C(=O)NC(C)C
  A = . | B = 4 | C = 5 | D = -1
C[C@@H]1CN([C@@H](C)CO)C(=O)c2cccc(NC(=O)Nc3ccc4c(c3)OCO4)c2O[C@@H]1CN(C)C(=O)Nc1cccc2ccccc12
  A = . | B = -3 | C = -3 | D = -4
CCCc1nc2c(=O)n(C)c(=O)nc-2n(C)n1
  A = 160* | B = -12 | C = -13 | D = 85*

# Only Yeast UUG start, ERp5 block and PDI turbidity (2 entries from above):
structure	Yeast UUG start	ERp5 block	PDI turbidity
C[C@@H]1CN([C@H](C)CO)C(=O)c2cc(NC(=O)CCC(F)(F)F)ccc2O[C@@H](C)CCCCO[C@@H]1CN(C)C(=O)c1ccncc1	9	.	.
C[C@@H]1CCCCO[C@H](CN(C)C(=O)c2ccccc2)[C@@H](C)CN([C@@H](C)CO)C(=O)c2cc(NC(=O)c3ccccc3)ccc2O1	.	1	.
